Each structure is given as a SMILES string. pIC50: −log10 of the molar value.

Protein sequences, listed by entry. Tags and fused reporters are not part of them.
UniProt O75874, whole entry R132H: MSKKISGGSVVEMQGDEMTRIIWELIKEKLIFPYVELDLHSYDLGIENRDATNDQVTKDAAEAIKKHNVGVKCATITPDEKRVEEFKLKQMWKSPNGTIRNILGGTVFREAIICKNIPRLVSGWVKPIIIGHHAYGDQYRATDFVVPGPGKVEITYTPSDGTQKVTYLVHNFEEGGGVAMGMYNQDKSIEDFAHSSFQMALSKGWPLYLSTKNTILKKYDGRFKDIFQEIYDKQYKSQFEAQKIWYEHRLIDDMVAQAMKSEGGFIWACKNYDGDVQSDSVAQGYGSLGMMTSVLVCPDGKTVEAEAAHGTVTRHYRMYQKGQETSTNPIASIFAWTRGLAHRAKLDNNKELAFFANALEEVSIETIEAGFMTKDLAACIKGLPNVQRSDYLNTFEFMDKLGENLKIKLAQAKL

For this test, the target named is R132H mutant IDH1 enzyme (Homo sapiens (Human), UniProt O75874, R132H). The test is described as follows: R132H IDH1 Enzymatic Assay. In kind it is biochemical. The note with it: R132H mutant IDH1 enzyme 1.5 nM final; luminescence (Kinase-GLO) readout. In general terms: In Kinase-Glo more light means more ATP remaining.

Broadly, the pIC50 is the negative decadic logarithm of the IC50, by convention in mol/L. Lower therefore signals a large IC50. On to `CC1(F)CN(C(=O)C23CCC(C(=O)N4Cc5cccnc5Nc5ccccc54)(CC2)CC3)C1` [Example 90, 6-({4-[(3-fluoro-3-methylazetidin-1-yl)carbonyl]bicyclo[2.2.2]oct-1-yl}carbonyl)-6,11-dihydro-5H-pyrido[2,3-b][1,5]benzodiazepine], for which the pIC50 was 5.42. The compound `O=C(N1CC(F)(F)C1)C12CCC(C(=O)N3Cc4cccnc4Nc4ccccc43)(CC1)CC2` [Example 91, 6-({4-[(3,3-difluoroazetidin-1-yl)carbonyl]bicyclo[2.2.2]oct-1-yl}carbonyl)-6,11-dihydro-5H-pyrido[2,3-b][1,5]benzodiazepine] gave a pIC50 of 5.24.

`O=C(N1CC(F)C1)C12CCC(C(=O)N3Cc4cccnc4Nc4ccccc43)(CC1)CC2` [Example 92, 6-({4-[(3-fluoroazetidin-1-yl)carbonyl]bicyclo[2.2.2]oct-1-yl}carbonyl)-6,11-dihydro-5H-pyrido[2,3-b][1,5]benzodiazepine] showed a pIC50 of 5.35.

`O=C(N1CCC1)C12CCC(C(=O)N3Cc4cccnc4Nc4ccccc43)(CC1)CC2` [Example 93, 6-{[4-(azetidin-1-ylcarbonyl)bicyclo[2.2.2]oct-1-yl]carbonyl}-6,11-dihydro-5H-pyrido[2,3-b][1,5]benzodiazepine] showed a pIC50 of 4.91.

Take `CC(C)N(C)C(=O)C12CCC(C(=O)N3Cc4cccnc4Nc4ccccc43)(CC1)CC2` [Example 94, 4-(5,11-dihydro-6H-pyrido[2,3-b][1,5]benzodiazepin-6-ylcarbonyl)-N-methyl-N-(1-methylethyl)bicyclo[2.2.2]octane-1-carboxamide]: the negative-log IC50 (pIC50) was 6.20. `O=C(C1CCc2ccccc2C1)N1Cc2cccnc2Nc2ccc(N3CCOCC3)cc21` (stereo not drawn) [Example 95, 8-Morpholin-4-yl-6-(1,2,3,4-tetrahydronaphthalen-2-ylcarbonyl)-6,11-dihydro-5H-pyrido[2,3-b][1,5]benzodiazepine]: the pIC50 is 7.04. The value for `COc1cccc2c1CC(C(=O)N1Cc3cccnc3Nc3ccc(N4CCOCC4)cc31)CC2` (stereo not drawn) [Example 96, 6-[(8-methoxy-1,2,3,4-tetrahydronaphthalen-2-yl)carbonyl]-8-morpholin-4-yl-6,11-dihydro-5H-pyrido[2,3-b][1,5]benzodiazepine] was 6.93. With `O=C(C1COc2ccccc2C1)N1Cc2cccnc2Nc2ccc(N3CCOCC3)cc21` (stereo not drawn) [Example 97, 6-(3,4-dihydro-2H-chromen-3-ylcarbonyl)-8-morpholin-4-yl-6,11-dihydro-5H-pyrido[2,3-b][1,5]benzodiazepine] the figure was 6.85. `O=C1Nc2ccccc2CC1C(=O)N1Cc2cccnc2Nc2ccc(N3CCOCC3)cc21` (stereo not drawn) [Example 98, 3-[(8-morpholin-4-yl-5,11-dihydro-6H-pyrido[2,3-b][1,5]benzodiazepin-6-yl)carbonyl]-3,4-dihydroquinolin-2(1H)-one] showed a pIC50 of 5.44. With `Cn1cc(-c2ccc3c(c2)N(C(=O)C2CCc4ccccc4CC2)Cc2cccnc2N3)cn1` [Example 99, 8-(1-Methyl-1H-pyrazol-4-yl)-6-(6,7,8,9-tetrahydro-5H-benzo[7]annulen-7-ylcarbonyl)-6,11-dihydro-5H-pyrido[2,3-b][1,5]benzodiazepine] the figure was 8.30. The value for `Cc1ncc(-c2ccc3c(c2)N(C(=O)C2CCc4ccccc4CC2)Cc2cccnc2N3)n1C` [Example 100, 8-(1,2-dimethyl-1H-imidazol-5-yl)-6-(6,7,8,9-tetrahydro-5H-benzo[7]annulen-7-ylcarbonyl)-6,11-dihydro-5H-pyrido[2,3-b][1,5]benzodiazepine] was 8.52; that for `Cn1nccc1-c1ccc2c(c1)N(C(=O)C1CCc3ccccc3CC1)Cc1cccnc1N2` [Example 101, 8-(1-methyl-1H-pyrazol-5-yl)-6-(6,7,8,9-tetrahydro-5H-benzo[7]annulen-7-ylcarbonyl)-6,11-dihydro-5H-pyrido[2,3-b][1,5]benzodiazepine] was 8.30; that for `Cc1nc(C)c(-c2ccc3c(c2)N(C(=O)C2CCc4ccccc4CC2)Cc2cccnc2N3)s1` [Example 102, 8-(2,4-dimethyl-1,3-thiazol-5-yl)-6-(6,7,8,9-tetrahydro-5H-benzo[7]annulen-7-ylcarbonyl)-6,11-dihydro-5H-pyrido[2,3-b][1,5]benzodiazepine] was 8.22. With `O=C(C1CCc2ccccc2CC1)N1Cc2cccnc2Nc2ccc(-c3cnoc3)cc21` [Example 103, 8-isoxazol-4-yl-6-(6,7,8,9-tetrahydro-5H-benzo[7]annulen-7-ylcarbonyl)-6,11-dihydro-5H-pyrido[2,3-b][1,5]benzodiazepine] the figure was 8.52; with `CCOc1cncc(-c2ccc3c(c2)N(C(=O)C2CCc4ccccc4CC2)Cc2cccnc2N3)c1` [Example 104, 8-(5-Ethoxypyridin-3-yl)-6-(6,7,8,9-tetrahydro-5H-benzo[7]annulen-7-ylcarbonyl)-6,11-dihydro-5H-pyrido [2,3-b][1,5]benzodiazepine], 8.30. In turn, `O=C([C@H]1COc2ccccc2O1)N1Cc2cccnc2Nc2ccc(C3CCOCC3)cc21` [Example 105, (R)-(2,3-Dihydrobenzo[b][1,4]dioxin-2-yl)(8-(tetrahydro-2H-pyran-4-yl)-5,11-dihydro-6H-benzo[b]pyrido[2,3-e][1,4]diazepin-6-yl)methanone] showed a pIC50 of 7.44. Compound `O=C(C1CCc2ccccc2CC1)N1Cc2cccnc2Nc2ccc(-c3ccnc(N4CCC(O)C4)c3)cc21` (stereo not drawn) [Example 106, 1-{4-[6-(6,7,8,9-tetrahydro-5H-benzo[7]annulen-7-ylcarbonyl)-6,11-dihydro-5H-pyrido[2,3-b][1,5]benzodiazepin-8-yl]pyridin-2-yl}pyrrolidin-3-ol] gave a pIC50 of 8.52. The value for `CN(C)c1cc(-c2ccc3c(c2)N(C(=O)C2CCc4ccccc4CC2)Cc2cccnc2N3)ccn1` [Example 107, N,N-dimethyl-4-[6-(6,7,8,9-tetrahydro-5H-benzo[7]annulen-7-ylcarbonyl)-6,11-dihydro-5H-pyrido[2,3-b][1,5]benzodiazepin-8-yl]pyridin-2-amine] was 8.30; that for `COc1ccc(-c2ccc3c(c2)N(C(=O)C2CCc4ccccc4CC2)Cc2cccnc2N3)c(C)n1` [Example 108, 8-(6-methoxy-2-methylpyridin-3-yl)-6-(6,7,8,9-tetrahydro-5H-benzo[7]annulen-7-ylcarbonyl)-6,11-dihydro-5H-pyrido[2,3-b][1,5]benzodiazepine] was 8.22; that for `Cn1ccc(-c2ccc3c(c2)N(C(=O)[C@H]2COc4ccccc4O2)Cc2cccnc2N3)n1` [Example 109, 6-[(2R)-2,3-dihydro-1,4-benzodioxin-2-ylcarbonyl]-8-(1-methyl-1H-pyrazol-3-yl)-6,11-dihydro-5H-pyrido[2,3-b][1,5]benzodiazepine] was 6.80.

In the case of `CCOc1ccc2c(n1)N(C(=O)C1CCc3ccccc3CC1)Cc1cccnc1N2` [Example 110, 2-Ethoxy-11-(6,7,8,9-tetrahydro-5H-benzo[7]annulen-7-ylcarbonyl)-10,11-dihydro-5H-dipyrido[2,3-b:2′,3′-e][1,4]diazepine], the pIC50 was 7.74.

For `O=C(N1Cc2cccnc2Nc2ccccc21)C12CCC(c3nc(C(F)(F)F)no3)(CC1)CC2` [Example 111, 6-({4-[3-(Trifluoromethyl)-1,2,4-oxadiazol-5-yl]bicyclo[2.2.2]oct-1-yl}carbonyl)-6,11-dihydro-5H-pyrido[2,3-b][1,5]benzodiazepine], the pIC50 was 5.73. With `CC(C)(O)c1ccc2c(c1)N(C(=O)C1CCc3ccccc3CC1)Cc1cccnc1N2` [Example 116, 2-[6-(6,7,8,9-Tetrahydro-5H-benzo[7]annulen-7-ylcarbonyl)-6,11-dihydro-5H-pyrido[2,3-b][1,5]benzodiazepin-8-yl]propan-2-ol] the figure was 8.30; with `CN(C)c1ccc2c(n1)N(C(=O)C1CCc3ccccc3CC1)Cc1cccnc1N2` [Example 117, N,N-Dimethyl-11-(6,7,8,9-tetrahydro-5H-benzo[7]annulen-7-ylcarbonyl)-10,11-dihydro-5H-dipyrido[2,3-b:2′,3′-e][1,4]diazepin-2-amine], 7.66; with `O=C(C1CCc2ccccc2CC1)N1Cc2cccnc2Nc2ccc(N3CCOCC3)nc21` [Example 118, 2-Morpholin-4-yl-11-(6,7,8,9-tetrahydro-5H-benzo[7]annulen-7-ylcarbonyl)-10,11-dihydro-5H-dipyrido[2,3-b:2′,3′-e][1,4]diazepine], 8.05.

`CC(C)[C@@H]1COC(=O)N1c1ccc2c(c1)N(C(=O)[C@]13C[C@H]4C[C@H](C[C@H](C4)C1)C3)Cc1cccnc1N2` [Example 119, (4R)-4-(1-Methylethyl)-3-{6-[(3S,5S,7S)-tricyclo[3.3.1.1˜3,7˜]dec-1-ylcarbonyl]-6,11-dihydro-5H-pyrido[2,3-b][1,5]benzodiazepin-8-yl}-1,3-oxazolidin-2-one] gave a pIC50 of 7.66. On to `O=C1CC(c2ccc3c(c2)N(C(=O)C2CCc4ccccc4CC2)Cc2cccnc2N3)CN1` (stereo not drawn) [Example 120, 4-[6-(6,7,8,9-Tetrahydro-5H-benzo[7]annulen-7-ylcarbonyl)-6,11-dihydro-5H-pyrido[2,3-b][1,5]benzodiazepin-8-yl]pyrrolidin-2-one], for which the pIC50 was 8.40.

In the case of `O=C(C1CCC2(CCO2)CC1)N1Cc2cccnc2Nc2ccc(N3CCOCC3)cc21` (stereo not drawn) [Example 121, 8-Morpholin-4-yl-6-(1-oxaspiro[3.5]non-7-ylcarbonyl)-6,11-dihydro-5H-pyrido[2,3-b][1,5]benzodiazepine], the pIC50 is 4.44. Turning to `O=C1CC2(C1)CC(C(=O)N1Cc3cccnc3Nc3ccc(N4CCOCC4)cc31)C2` [Example 122, 6-[(8-Morpholin-4-yl-5,11-dihydro-6H-pyrido[2,3-b][1,5]benzodiazepin-6-yl)carbonyl]spiro[3.3]heptan-2-one], the pIC50 was 5.29. `CC1(O)CC2(CC(C(=O)N3Cc4cccnc4Nc4ccc(N5CCOCC5)cc43)C2)C1` (stereo not drawn) [Example 123, 2-Methyl-6-[(8-morpholin-4-yl-5,11-dihydro-6H-pyrido[2,3-b][1,5]benzodiazepin-6-yl)carbonyl]spiro[3.3]heptan-2-ol] showed a pIC50 of 5.22.

The values are drawn from patent US10086000B2, “Tricyclic compounds as inhibitors of mutant IDH enzymes” (Merck Sharp & Dohme Corp., priority 2014, dated 2018).
